{"source": "patent US10226449B2", "about": "“Heterocyclic modulators of lipid synthesis and combinations thereof” (priority 2013, dated 2019)", "test_system": "HCV1b replicon", "assay": "HCV1b replicon antiviral assay (luciferase reporter)", "type": "cell-based", "conditions": "HCV genotype 1b replicon; read-out: HCV GT1b EC50"}
{"substance": "(3-(4-chloro-2-methyl-1H-imidazol-5-yl)-4-methylphenyl)(4-(4-chlorophenyl)piperidin-1-yl)methanone [Compound 42]", "values": [{"measurement": "EC50", "value": 115, "unit": "nM"}]}
